The nature of this data set: Blood Brain Barrier penetration: plasma and brain concentration. It counts as in vivo.

The structures appear in SMILES notation.

In the case of `C[C@@H]1CN(Cc2ncccn2)C[C@H]1c1nc2c(cnn2C2CCOCC2)c(=O)[nH]1` (relative stereo), the “Plasma concentration after 30 minutes” value (30 min) came to 1230 ng/mL. Besides, the “Plasma concentration after 120 minutes” value (120 min) was 529 ng/mL.

The values above are taken from US20250019381A1, “PROCESS FOR THE […] OF 6-((3S,4S)-4-METHYL-1-(PYRIMIDIN-2-[…])PYRROLIDIN-3-YL)-3-(TETRAHYDROPYRAN-4-YL-7H-IMIDAZO[1,5-a]PYRAZIN-8-ONE” (Cardurion Pharmaceuticals, Inc., priority 2017, published 2025).
